The record followed here is ChEMBL document CHEMBL2375236, “Strategic use of conformational bias and structure based design to identify potent JAK3 inhibitors with improved selectivity against the JAK family and the kinome” (Bioorg Med Chem Lett, 2013).

For one assay, the target named is JAK3/JAK1 (Homo sapiens, UniProt P23458+P52333). It counts as cell-based, T-cell.
The target in assay [1] is T1, Tyrosine-protein kinase JAK3 (Homo sapiens, UniProt P52333).
T1 sequence (P52333 whole entry): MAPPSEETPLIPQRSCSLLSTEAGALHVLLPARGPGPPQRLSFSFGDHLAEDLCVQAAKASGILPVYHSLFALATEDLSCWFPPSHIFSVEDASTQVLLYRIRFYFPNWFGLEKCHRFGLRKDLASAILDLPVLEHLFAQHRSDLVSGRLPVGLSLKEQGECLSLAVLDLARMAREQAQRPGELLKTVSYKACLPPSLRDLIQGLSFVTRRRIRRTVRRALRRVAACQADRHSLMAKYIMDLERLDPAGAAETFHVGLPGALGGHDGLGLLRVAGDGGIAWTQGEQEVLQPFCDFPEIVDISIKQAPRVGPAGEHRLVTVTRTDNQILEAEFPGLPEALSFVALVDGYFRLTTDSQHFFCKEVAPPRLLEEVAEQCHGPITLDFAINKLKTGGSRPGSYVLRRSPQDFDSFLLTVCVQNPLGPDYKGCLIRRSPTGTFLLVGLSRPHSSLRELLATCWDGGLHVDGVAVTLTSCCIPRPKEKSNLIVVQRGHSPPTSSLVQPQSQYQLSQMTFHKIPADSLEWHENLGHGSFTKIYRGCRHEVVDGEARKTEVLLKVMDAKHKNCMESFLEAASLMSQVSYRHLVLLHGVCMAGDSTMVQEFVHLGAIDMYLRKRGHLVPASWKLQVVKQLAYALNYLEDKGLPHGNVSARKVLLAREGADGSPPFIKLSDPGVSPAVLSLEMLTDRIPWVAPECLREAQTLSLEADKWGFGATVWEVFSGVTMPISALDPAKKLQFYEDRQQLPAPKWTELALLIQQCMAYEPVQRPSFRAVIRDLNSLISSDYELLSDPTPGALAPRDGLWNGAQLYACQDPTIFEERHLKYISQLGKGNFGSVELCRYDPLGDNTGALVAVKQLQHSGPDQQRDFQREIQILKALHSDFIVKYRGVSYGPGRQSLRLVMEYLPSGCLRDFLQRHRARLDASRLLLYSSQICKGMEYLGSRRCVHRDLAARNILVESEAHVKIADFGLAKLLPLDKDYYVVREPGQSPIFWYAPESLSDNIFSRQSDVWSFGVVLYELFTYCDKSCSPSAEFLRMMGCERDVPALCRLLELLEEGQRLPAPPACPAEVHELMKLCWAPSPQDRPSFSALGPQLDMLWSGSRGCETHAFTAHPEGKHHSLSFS

Assay [2] deals with T1, Tyrosine-protein kinase JAK3. The source holds these as a separate data set.

One may read the IC50 as the concentration at which inhibition is half-maximal. Read a high IC50 as lower potency. For orientation: Kd means the equilibrium constant for the complex coming apart. Higher therefore signals a looser complex.

Regarding `COc1cc(-c2cnc3[nH]cc(C(=O)N[C@H](C)C(=O)N4CC(C#N)C4)c3n2)cc(OC)c1OC`, the IC50 on JAK3/JAK1 came to 100 nM; in assay [1] it was 0.4 nM.

In turn, `C[C@@H](NC(=O)c1c[nH]c2ncc(-c3cn(C)c4cc(Cl)ccc34)nc12)C(=O)N1CC(C#N)C1` showed an IC50 in assay [1] of 0.8 nM.

As to `C[C@@H](NC(=O)c1c[nH]c2ncc(-c3nn(C)c4cc(Cl)ccc34)nc12)C(=O)N1CC(C#N)C1`, the Kd in assay [2] worked out at 1.4 nM. In addition, the IC50 is 240 nM against JAK3/JAK1 and 1.1 nM in assay [1].

In the case of `C[C@@H](NC(=O)c1c[nH]c2ncc(-c3nn(C)c4cc(F)ccc34)nc12)C(=O)N1CC(C#N)C1`, the half-inhibitory concentration (IC50) is 150 nM on JAK3/JAK1 and 0.6 nM in assay [1].

For `C[C@@H](NC(=O)c1c[nH]c2ncc(-c3nn(C)c4cc(C#N)ccc34)nc12)C(=O)N1CC(C#N)C1`, in assay [1], it took 2.3 nM to reach half-maximal inhibition (IC50).

On to `Cn1nc(-c2cnc3[nH]cc(C(=O)N[C@@H](C(=O)N4CC(C#N)C4)C4CC4)c3n2)c2ccc(Cl)cc21`, for which, in assay [1], the IC50 was 0.3 nM. Against the preceding compound, the IC50 is about 7.7-fold lower.

In turn, `C[C@@H](NC(=O)c1c[nH]c2ncc(-c3ncn4cc(F)cc(F)c34)nc12)C(=O)N1CC(C#N)C1` showed a 50% inhibitory concentration (IC50) in assay [1] of 1 nM.
